Reference: patent US20160250285A1, “NEUROPROTECTIVE PEPTIDES” (priority 2013, published 2016)

How the values were obtained:
[1] = tested on: intracellular calcium influx in neuronal cultures; assay: Intracellular calcium influx (Fura-2 AM) after glutamic acid; format: cell-based, rat; conditions: peptide 5 μM for 10 min, removed before 100 μM glutamic acid (FIG. 44)
[2] = tested on: primary cortical neuronal cultures; assay: In vitro ischemia / oxygen-glucose deprivation (OGD) model, neurons; format: cell-based, rat
[3] = tested on: primary cortical neuronal cultures
Method: Briefly, cortical tissue from E18-E19 Sprague-Dawley rats was dissociated in Dulbecco's modified Eagle medium (DMEM; Invitrogen, Australia) supplemented with 1.3 mM L-cysteine, 0.9 mM NaHCOa, 10 units/ml papain (Sigma, USA) and 50 units/ml DNase (Sigma) and washed in cold DMEM/10% horse serum. Neurons were resuspended in Neurobasal (Invitrogen) containing 2% B27 supplement (B27; Invitrogen). Before seeding, 96-well sized glass wells (6 mm diameter, ProTech, Australia) or 96-well plastic plates (ProSciTech, Australia) were coated with poly-D-lysine overnight ([…]: 50 mg/mL; 70-150 K, Sigma). […] Neurons were plated to obtain ≈10,000 viable neurons for each well on day in vitro 11-12. […] On day in vitro 4 one third of the culture medium was removed and replaced with fresh Neurobasal/2% B27 containing the mitotic inhibitor, cytosine arabinofuraNOside (1 mM final concentration; Sigma). On day in vitro 8 one half of the culture medium was replaced with Neurobasal/2% B27.
To induce excitotoxicity, 50 μl of Neurobasal/2% B27 containing glutamic acid (200 μM) or kainic acid (400 μM) or NMDA (200 μM) was added to the culture wells (100 μM glutamic acid, 200 μM kainic acid and NMDA 100 μM final concentration). Cultures were incubated at 37° C. in the CO2 incubator for 5 minutes for glutamic acid, 45 minutes for kainic acid and 10 minutes for NMDA exposure, after which time the media was replaced with 100 μl of 50% Neurobasal/2% N2 supplement (Invitrogen) and 50% balanced salt solution (BSS; see below). Cultures were incubated for a further 24 hours at 37° C. in the CO2 incubator. The untreated controls with or without glutamic acid or kainic acid treatment received the same wash steps and media additions.
Following this step, cultures were treated as described above. Untreated controls with or without glutamic acid exposure received the same wash steps and media additions. In addition, a post-glutamic acid exposure CPP treatment (5 μM) experiment was performed for the R9 peptide and the JNKI-1D-TAT control peptide.
For pre-glutamic acid exposure experiments, neurons were exposed to peptide(s) for a 10 minute period, immediately before or 1, 2, 3, 4 or 5 hours prior to glutamic acid exposure. […] At the relevant peptide pre-treatment time, media was removed and replaced with 100 μl of Neurobasal/2%. […] Following 5-minute glutamic acid exposure, neuronal culture wells were treated as described above. For all experiments untreated controls with or without glutamic acid treatment underwent the same incubation steps and media additions.
Heparin (for injection) was obtained from Pfizer (1000 IU/ml). Two different heparin experiments were performed: 1. Peptides were incubated with heparin (20 IU/ml) in Neurobasal/B27 for 5 minutes at room temperature, before addition to culture wells (50 μl) for 15 minutes at 37° C. in the CO2 incubator. Following the incubation period, media in wells was removed and replaced with 100 μl of Neurobasal/2% B27 containing glutamic acid (100 μM), and subsequently treated as described above; 2. Media in wells was replaced with Neurobasal/2% B27 containing heparin (50 μl; 40 IU/ml) and incubated for 5 minutes at 37° C. in the CO2 incubator. After the incubation period, peptides or glutamate receptor blockers (MK801/CNQX) in Neurobasal/2% B27 (50 μl) were added to the culture wells and cultures incubated for a further 10 minutes at 37° C. in the CO2 incubator. Following the incubation period, media in wells was removed and replaced with 100 μl of Neurobasal/2% B27 containing glutamic acid (100 μM), and subsequently treated as described above. For all experiments, non-heparin treated peptide controls with glutamic acid treatment underwent the same incubation steps and media additions.
Twenty-four hours after insult, neuronal cultures were examined by light microscopy for qualitative assessment of neuronal cell viability.

- IC50 [3]: 190 nM
SMILES: N=C(N)NCCC[C@H](NC(=O)[C@H](CCCNC(=N)N)NC(=O)[C@H](CCCNC(=N)N)NC(=O)[C@H](CCCNC(=N)N)NC(=O)[C@H](CCCNC(=N)N)NC(=O)[C@H](CCCNC(=N)N)NC(=O)[C@H](CCCNC(=N)N)NC(=O)[C@H](CCCNC(=N)N)NC(=O)[C@H](CCCNC(=N)N)NC(=O)[C@H](CCCNC(=N)N)NC(=O)[C@H](CCCNC(=N)N)NC(=O)[C@H](CCCNC(=N)N)NC(=O)[C@H](CCCNC(=N)N)NC(=O)[C@H](CCCNC(=N)N)NC(=O)[C@@H](N)CCCNC(=N)N)C(=O)O [Peptide R15]
- calcium influx after glutamic acid [1]: to varying degrees reduced calcium influx
- efficacy at higher concentrations, added post-in vitro ischemia ([2]; FIG. 3b): reduced efficacy
- neuroprotection when added for 15 minutes after OGD ([2]; FIGS. 31, 20, 22, 1 μM and 5 μM in FIG. 31): Neuroprotection is displayed
- neuroprotection when added post-in vitro ischemia/OGD ([2]; added after anaerobic incubation until experiment end (FIGS. 3b, 16, 17)): displayed neuroprotective effects; also recorded: effective
- neuroprotective efficacy at the higher concentration ([3]; 5 μM, dose response study): reduced
- neuroprotection, peptide present during the 5 minute glutamic acid insult only ([3]; FIG. 28): effective
- neuroprotection, 10 minute pre-exposure removed immediately prior to insult ([3]; FIG. 29, FIG. 14): effective
- neuroprotection, peptide for 10 minutes, 1 to 4 hours prior to glutamic acid insult ([3]; FIG. 30): effective
- effect of heparin on neuroprotective action ([3]; heparin 20 IU/ml with peptide or 40 IU/ml on cultures (FIGS. 39, 40)): blocks neuroprotective actions
- neuroprotection (neuronal viability) ([3]; peptide 15 min prior to and during glutamic acid exposure, viability 24 h, MTS): showed significant neuroprotection

“Also recorded” adds a separate entry of the source.
